Source: PubChem BioAssay AID2417 (National Center for Advancing Translational Sciences (NCATS), 2010)
Hit rate of the full screen: of about 140,000 compounds, about 4,300 (3.1%) were called active. These results got no clear call from the source, so the numbers are uncertain.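 How the source made its calls: active means readout at or below -70, meaning at least 70% loss of cells showing the perinucleolar compartment, a nuclear body marking cancer cells; inconclusive means readout between -30 and a set limit; inactive means the rest.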

Experiment: High Content Assay for Compounds that inhibit the Assembly of the Perinucleolar Compartment
Details: PC3M PTB-GFP, PNC prevalence imaging, 16 h; at 10 µM; stronger effect = lower value
Description: High Content Assay for Compounds that inhibit the Assembly of the Perinucleolar Compartment NIH Chemical Genomics Center [NCGC] NIH Molecular Libraries Probe Centers Network [MLPCN] MLPCN Grant: MH082371-01A2 Assay Submitter (PI): Sui Huang, Northwestern University, Feinberg School of Medicine, Cell and Molecular Biology, Chicago, Illinois. The perinucleolar compartment (PNC) is a non-membrane-bound nuclear subdomain that is associated with but structurally distinct from the nucleolus. The PNC is a heritable trait, in which the number of PNCs per cell in daughter cells often mimics that of their mother cells. The PNC is heterogeneous in shape, is stable through interphase, disassembles during mitosis, and reassembles in early G1. The PNC is concentrated with newly synthesized RNA polymerase III (pol III) RNAs (MRP RNA, RNAse P H1 RNA, hY RNAs[hY1, 2, 5], Alu RNA, and SRP [7SL] RNA) and RNA binding proteins (nucleolin, PTB, CUG-BP, KSRP, Raver1, Raver2, and Rod). […] Extensive in vitro studies have shown that the PNC is unique to tumor cells and preferentially forms in tumor cells derived from solid tissues. Examination of cancer cell lines from various origins and malignant capacities has shown that PNC prevalence correlates with the malignancy of tumors and has the potential to be developed as a pan-cancer prognostic marker. […] Although the PNC is associated with a DNA locus and a handful of components have been identified, much remains to be investigated regarding the structure and function of the PNC and its mechanistic link to cancer. We have previously shown that PNC prevalence reduction is a valid strategy to identify compounds that can be used to study the structure and function of the PNC. It is necessary, however, to create a screening platform that is able to test a large number of compounds in an automated fashion. Here we report the development and robustness of an automated whole-cell phenotypic image-based screening assay that is capable of identifying such compounds.
PNC High Content Imaging Assay Procedure: 1. Cells at a density of 75-90% confluency in T175 flasks were harvested using 7 ml TrypLE Express cell dissociation reagent. After dissociation (5 minutes room temperature incubation) 10 ml of complete media was added to the TrypLE/cell suspension. The liquid was transferred to a 50 ml Conical tube and cells were pelleted at 1000 RPM for 5 min. Supernatant was removed and cells were resuspended to a final density of 150-200 cells/ul in complete media. 2. Cells were plated in 5 ul volume (750-1000 cells/well) into 1536 well Black uclear Aurora Low Base plates and allowed to recover and adhere at 37 C in a humidified 5% CO2 incubator for 4 hours. 3. After 4 hour incubation, compound libraries (23 nl of […] in columns 5-48) were transferred to the plates in duplicate using a 1536 well pintool. Camptothecin positive control (59 uM final) was added to column 2 and 1:3 dilutions of camptothecin was added to column 3. DMSO negative controls were present in columns 1 and 4. 4. After a 16 hour incubation in the 37 C incubator, cells were fixed by the addition of 4 ul of 6% EM grade paraformaldehyde (containing 0.1% triton X 100) directly to the cells. The plates were incubated at room temperature for 20 minutes. The liquid was removed using a 32 channel Kalypsys aspirator and the fixed cells were washed twice with 5 ul PBS followed by a final addition of 5 ul PBS containing 1 ug/ml Hoechst 33342. 5. Fixed plates were sealed and sotred at 4C until imaged. 6. Plates were imaged on an InCell 1000 automated microscope using a 20 x objective, a standard FITC filter set, no camera binning, and an exposure time of ~100-150 msec/well. 7. Data analysis. PNC prevalence was determined using the Multitarget analysis module from InCell Workstation software (V3.5 ) and analysis was run on a quad core workstation using the Incell Developer Toolbox (V1.7). […]

Row | SMILES | activity change (PNC), negative = inhibition
1 | COP1(=S)c2c(C)nn(CCC#N)c2N=C(c2ccc(F)cc2)N1C (configuration not stated) | inconclusive: -62.5%
2 | CCC(C)N(CC(C)C)C(=S)SC(NC(C)=O)C(Cl)(Cl)Cl (configuration not stated) | inconclusive: -37.7%
3 | Cc1c2c(nc3ccccc13)SC(C(Cl)Cl)C2 (configuration not stated) | inconclusive: -48.3%
4 | O=[N+]([O-])c1cc([N+](=O)[O-])c(-c2ccn[nH]2)s1 | inconclusive: -32.9%
5 | O=P(Nc1nccs1)(c1ccccc1)c1nc2ccccc2s1 (configuration not stated) | inconclusive: -61.3%
6 | CCOP1(=S)c2c(C)nn(CCC#N)c2N=C(c2ccc(F)cc2)N1C (configuration not stated) | inconclusive: -52.4%
7 | CCOP(=O)(Nc1cccc2ccccc12)OCC | inconclusive: -79.7%
8 | Cc1ccc(NCCc2c([N+](=O)[O-])cc([N+](=O)[O-])cc2[N+](=O)[O-])cc1 | inconclusive: -30.7%
9 | Cc1nn(-c2ccccc2)c2c1P(=O)(N1CCOCC1)N(C)C(c1ccccc1)=N2 (configuration not stated) | inconclusive: -39.4%
10 | C(Cc1nn[nH]n1)Cc1nn[nH]n1 | inconclusive: -51.5%
11 | CC(=O)NC(SC(=S)N(C)C)C(Cl)(Cl)Cl (configuration not stated) | inconclusive: -75.4%
12 | CCC(=O)N1C2C3N(C(=O)CC)C1C1N(C(=O)CC)C(C(N1C(=O)CC)N3C(=O)CC)N2C(=O)CC | inconclusive: -30.1%
